This is an account of results in patent US11275071B2, “Sensor dyes for real-time sensing of metal ions in aqueous environments” (UWM Research Foundation, Inc., priority 2015, dated 2022).

The conditions of this data set: 60 μM dye from DMSO stock, 0.5 mole equivalents of metal, 0.1 M MOPS buffer, 2 mM Triton X-100.

Consider Quinoline Azo 3-Naphthoic Acid [QAN-3A], for which the “appearance of dye solution with metal” value is “cloudy and aggregation was seen”.
